Measured values from ChEMBL document CHEMBL3272293, “Use of distribution coefficients in quantitative structure-activity relationships” (J Med Chem, 1977).

Tests used:
Format in all cases: physicochemical
Details in all cases: octanol/water
[1] = Octanol-aqueous phase distribution coefficient, log D of the compound at pH 6
[2] = Octanol-aqueous phase distribution coefficient, log D of the compound at pH 7
[3] = Octanol-aqueous phase distribution coefficient, log D of the compound at pH 5
[4] = Octanol-aqueous phase distribution coefficient, log D of the compound at pH 8

O=[N+]([O-])c1cccc([N+](=O)[O-])c1O
logD [1]: -1.05 | logD [2]: -2.05 | logD [3]: -0.05 | logD [4]: -3.05
